Reference: PubChem BioAssay AID602252 (Broad Institute, 2012)
The entries are a selection whose mix differs from that of the whole data set. Some structures show a salt or complex split into parts, the way the source records it. Calls of active or inactive are those of the source.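 Rule for the calls: active = mean inhibition of at least 30% with at least half of replicates also reaching 30%; inconclusive = no clear call, values can overlap the other calls; inactive = the rest.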

Biological target: Golgi-associated PDZ and coiled-coil motif-containing protein (Homo sapiens) (UniProt Q9HD26)
Experiment: untagged CAL PDZ binding inhibitors, primary screen, biochemical, fluorescence polarization, HTS (AID 602252);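 note: 0% = DMSO neutral control and 100% = excess unlabeled competitor peptide PRC23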
Conditions: purified CAL PDZ, TMR-peptide fluorescence polarization, 1 h; at 24.9 µM; stronger effect = higher value

Row | SMILES | inhibition
1 | Cc1c(NP(C)(=O)Oc2ccc(C(C)C)cc2)c(=O)n(-c2ccccc2)n1C (centres undefined) | inactive: -0.83%
2 | O=[N+]([O-])c1cc([N+](=O)[O-])c(Nc2ccccn2)c([N+](=O)[O-])c1 | inactive: 2.92%
3 | CCc1ccc(OP(C)(=O)O)cc1 | inactive: -0.336%
4 | CP(=O)(Nc1ccccn1)Oc1ccccc1 (centres undefined) | inactive: 7.64%
5 | COc1ccccc1OP(C)(=O)Nc1ccc(C)cc1C (centres undefined) | inactive: -1.39%
6 | COc1ccccc1OP(C)(=O)Nc1ccc(Br)cc1 (centres undefined) | active: 65.5%
7 | CN(C)CCOC(=O)C(O)(c1ccccc1)C1CCCC1 (centres undefined) | inactive: 2.39%
8 | COc1ccc(OP(C)(=O)Nc2ccccn2)cc1 (centres undefined) | inactive: -2.95%
9 | CP(=O)(Nc1ccc(Cl)cc1Cl)Oc1ccccc1 (centres undefined) | inactive: -2.49%
10 | CCCCCCCCCCCCCCCC1C[N+](C)(C)CCOP(C)(=O)O1 (centres undefined) | inactive: -6.49%
11 | CP(=O)(OCCOc1ccccc1)OCCOc1ccccc1 | inactive: -5.37%
12 | O=C1C(O)=C([N+](=O)[O-])C(=O)C(O)=C1[N+](=O)[O-] | inactive: 7.52%
13 | Cc1cc(C)cc(OP(C)(=O)Nc2cccc(C(F)(F)F)c2)c1 (centres undefined) | inactive: -3.18%
14 | COc1ccc(OP(C)(=O)Nc2ccccc2Br)cc1 (centres undefined) | inactive: 1.07%
15 | COc1ccccc1OP(C)(=O)Nc1ccc(C)c(C)c1 (centres undefined) | inactive: -4.8%
16 | CP(=O)(OC12CC3CC(CC(C3)C1)C2)OC12CC3CC(CC(C3)C1)C2 | inactive: -0.212%
17 | CCOC(=O)c1ccc(NP(C)(=O)Oc2ccc(Cl)cc2)cc1 (centres undefined) | inactive: -0.848%
18 | CP(=O)(Nc1ccc(Cl)cc1)Oc1ccc(F)cc1 (centres undefined) | inactive: -1.39%
19 | COc1ccccc1OP(C)(=O)Nc1ccccc1Br (centres undefined) | inactive: 21.8%
20 | CC(C)(C)c1ccc(OP(C)(=O)O)cc1 | inactive: 20.2%
21 | CN(C)C(=O)c1c([N+](=O)[O-])cc([N+](=O)[O-])cc1[N+](=O)[O-] | inactive: -1.69%

Row | SMILES | inhibition
22 | CCN(CC)CC(O)COC(=O)C(O)(c1ccccc1)C1CCCCC1 (centres undefined) | inactive: 4.2%
23 | COc1ccc(OP(C)(=O)Nc2ccc(Br)cc2)cc1 (centres undefined) | inactive: -1.2%
24 | CP(=O)(Oc1ccccc1)N1CCOC1=O (centres undefined) | inactive: -4.52%
25 | CCc1ccc(OP(C)(=O)Nc2cccnc2)cc1 (centres undefined) | inactive: -3.2%
26 | COc1ccccc1OP(C)(=O)Nc1c(C)n(C)n(-c2ccccc2)c1=O (centres undefined) | inactive: -1.89%
27 | O=C(OCCCN1CCCC1)C(O)(c1ccccc1)C1CCCCC1 (centres undefined) | inactive: -2.14%
28 | CP(=O)(Nc1ccc2c(c1)OCCO2)Oc1ccccc1 (centres undefined) | inactive: -9.06%
29 | Cc1ccccc1NP(C)(=O)Nc1ccccc1C | inactive: -7.16%
30 | CP(=O)(Nc1ccc(SC(F)(F)F)cc1)Oc1ccc(F)cc1 (centres undefined) | inactive: -6.33%
31 | CCOP(C)(=S)SCC(=O)NC(C)(CC)C(=O)O (centres undefined) | inactive: -2.64%
32 | Cc1cc(-c2cccc3ccccc23)c(C)cn1.O=[N+]([O-])c1cc([N+](=O)[O-])c(O)c([N+](=O)[O-])c1 | inactive: -4.26%
33 | O=[N+]([O-])c1cc([N+](=O)[O-])c(NCC2CCS(=O)(=O)C2)c([N+](=O)[O-])c1 (centres undefined) | inactive: -2.55%
34 | O=[N+]([O-])c1ccc(OP2(=O)COCCO2)cc1 (centres undefined) | inactive: -1.31%
35 | Cc1c(C(c2ccc3c(c2)OCO3)c2c(C)n(C)n(-c3ccccc3)c2=O)c(=O)n(-c2ccccc2)n1C.O=[N+]([O-])c1cc([N+](=O)[O-])c(O)c([N+](=O)[O-])c1 | inactive: -3.17%
36 | COc1ccc(OP(C)(=O)Nc2cccc(Br)c2)cc1 (centres undefined) | inactive: 2.3%
37 | COc1ccc(NP(C)(=O)Oc2ccccc2OC)cc1 (centres undefined) | inactive: -0.942%
38 | CN(C)CCOC(=O)C(O)(c1ccccc1)C1CCCCC1 (centres undefined) | inactive: -3.52%
39 | CCN(CC)CCCOC(=O)C(O)(c1ccccc1)C1CCCCC1 (centres undefined) | inactive: -3.47%
40 | Cc1c([N+](=O)[O-])cc([N+](=O)[O-])c(Br)c1[N+](=O)[O-] | inactive: 0.619%
41 | O=[N+]([O-])c1cc([N+](=O)[O-])c(OC2CCCCC2O)c([N+](=O)[O-])c1 (centres undefined) | inactive: -0.869%
42 | CCCCCOc1ccc(NP(C)(=O)Oc2ccc(Cl)cc2Cl)cc1 (centres undefined) | inactive: -1.29%

Row | SMILES | inhibition
43 | CP(=O)(Nc1ccccc1)Oc1ccc(F)cc1 (centres undefined) | inactive: -2.63%
44 | O=C(OCCN1CCN(CCOCc2ccccc2)CC1)C(O)(c1ccccc1)c1ccccc1 | inactive: -0.486%
45 | O=C(OC1CN2CCC1CC2)c1ccc([N+](=O)[O-])cc1 (centres undefined) | inactive: -0.749%
46 | COc1ccc2c(c1O)-c1c(O)c(OC)cc3c1[C@H](C2)[N+](C)(C)CC3.O=[N+]([O-])c1cc([N+](=O)[O-])c([O-])c([N+](=O)[O-])c1[O-] | inactive: -0.881%
47 | CC(C)c1ccc(OP(C)(=O)Nc2ccc(SC(F)(F)F)cc2)cc1 (centres undefined) | inactive: -2.1%
48 | CP(=O)(Nc1ccccc1F)Oc1ccccc1 (centres undefined) | inactive: -3.69%
49 | Cc1cc(C)cc(OP(C)(=O)Nc2ccccn2)c1 (centres undefined) | inactive: 2.71%
50 | CP(=O)(Nc1cccc(Br)c1)Oc1ccccc1 (centres undefined) | inactive: -9.68%
51 | Cc1ccc(C)c(NP(C)(=O)Oc2ccccc2)c1 (centres undefined) | inactive: -0.738%
52 | COc1ccccc1OP(C)(=O)Nc1cccc(Br)c1 (centres undefined) | inactive: -0.382%
53 | Cc1cc(C)cc(OP(C)(=O)Nc2ccc(C)cc2C)c1 (centres undefined) | inactive: -3.93%
54 | CCOC(=O)c1ccc(NP(C)(=O)Oc2cc(C)cc(C)c2)cc1 (centres undefined) | inactive: 0.786%
55 | CC1=NCCc2c1[nH]c1ccccc21.O=[N+]([O-])c1cc([N+](=O)[O-])c(O)c([N+](=O)[O-])c1 | inactive: -2.61%
56 | O=C(O)c1cccc(Nc2c([N+](=O)[O-])cc([N+](=O)[O-])cc2[N+](=O)[O-])c1 | inactive: -2%
57 | CN1CCCCC1COC(=O)C1(O)c2ccccc2CCc2ccccc21 (centres undefined) | inactive: -2.04%
58 | COc1ccccc1OP(C)(=O)Nc1c(C)cccc1C (centres undefined) | inactive: 3.34%
59 | CCCOc1ccc(NP(C)(=O)Oc2ccc(Cl)cc2)cc1 (centres undefined) | inactive: -6.3%
60 | CP(=O)(Nc1ccc(SC(F)(F)F)cc1)Oc1ccccc1 (centres undefined) | inactive: -5.05%
61 | CC1=C2N=C(C=C3N=C(C(C)=C4[N-][C@@](C)([C@@H]5N=C1[C@](C)(CCC(=O)NC[C@@H](C)OP(=O)([O-])O[C@H]1[C@@H](O)[C@@H](n6cnc7cc(C)c(C)cc76)O[C@@H]1CO)[C@H]5CC(N)=O)[C@@](C)(CC(N)=O)[C@@H]4CCC(N)=O)[C@@](C)(CC(N)=O)[C@@H]3CCC(N)=O)C(C)(C)[C@@H]2CCC(N)=O.[C-]#N.[Co+3] | inactive: -2.46%
62 | O=[N+]([O-])c1cc([N+](=O)[O-])c(Nc2nnnn2CCO)c([N+](=O)[O-])c1 | inactive: -1.51%
63 | CCOC(=O)C(CC)C1=NC(C)(C)Cc2ccccc21.O=[N+]([O-])c1cc([N+](=O)[O-])c(O)c([N+](=O)[O-])c1 (centres undefined) | inactive: 0.357%

Row | SMILES | inhibition
64 | Cc1nc2ccc3ccccc3c2s1.O=[N+]([O-])c1cc([N+](=O)[O-])c(O)c([N+](=O)[O-])c1 | inactive: -2.59%
65 | O=[N+]([O-])c1cc([N+](=O)[O-])c(-n2nnc3ccccc32)c([N+](=O)[O-])c1 | inactive: 0.667%
66 | CCOP(C)(=S)SCC(=O)NC(C)C(=O)O (centres undefined) | inactive: 0.288%
67 | CCOC(=O)c1ccc(NP(C)(=O)Oc2ccc(OC)cc2)cc1 (centres undefined) | inactive: -0.99%
68 | CP(=O)(Nc1ccccn1)Oc1ccc(Cl)cc1 (centres undefined) | inactive: -1.59%
69 | Cc1cccc(C)c1OP(C)(=O)Nc1ccc(SC(F)(F)F)cc1 (centres undefined) | inactive: -2.71%
70 | CP(=O)(Oc1ccccc1)OC(c1ccccc1)C(F)(F)F (centres undefined) | inactive: -10.2%
71 | CP(=O)(NC(=O)Nc1ccccc1)Oc1ccccc1 (centres undefined) | inactive: -0.703%
72 | Cc1cc(C)cc(OP(C)(=O)Nc2ccc(SC(F)(F)F)cc2)c1 (centres undefined) | inactive: -3.36%
73 | COc1ccccc1OP(C)(=O)Nc1ccccc1 (centres undefined) | inactive: -6.63%
74 | CCOC(=O)c1ccc(NP(C)(=O)Oc2ccccc2)cc1 (centres undefined) | inactive: -2.55%
75 | COc1ccccc1OP(C)(=O)Nc1ccc(C)cc1 (centres undefined) | inactive: -1.39%
76 | Cc1ccc(NP(C)(=O)Oc2ccccc2)c(C)c1 (centres undefined) | inactive: -2.63%
77 | COc1ccccc1OP(C)(=O)Nc1cc(Cl)ccc1C (centres undefined) | inactive: 4.09%
78 | COc1ccc(OP(C)(=O)Nc2cccc(F)c2)cc1 (centres undefined) | inactive: 1.22%
79 | Cc1cc(C)cc(OP(C)(N)=O)c1 (centres undefined) | inactive: -2.74%
80 | O=[N+]([O-])c1cc([N+](=O)[O-])c(Nc2cccnc2)c([N+](=O)[O-])c1 | inactive: -0.163%
81 | CC(C)(C)c1ccc(OP(C)(=O)Nc2ccc(SC(F)(F)F)cc2)cc1 (centres undefined) | inactive: -3.27%
82 | Cc1cccc(C)c1OP(C)(N)=O (centres undefined) | inactive: -2.58%
83 | O=[N+]([O-])c1ccc2c(c1)C=Nc1ccccc1O2 | inactive: 7.63%
84 | CCN(CC)CCCOC(=O)C(O)(c1ccccc1)c1ccccc1 | inactive: -2.95%
